These compounds were tested against RET V804L (Homo sapiens (Human), UniProt P07949, V804L). Settings: 10 μM ATP, 25° C., 120 minutes; read-out: V804L Mutant.
Type: biochemical

Amino acid sequences for entries named in this document (tags omitted). Residues count along the entry.
UniProt P07949, 29-1114 V804L: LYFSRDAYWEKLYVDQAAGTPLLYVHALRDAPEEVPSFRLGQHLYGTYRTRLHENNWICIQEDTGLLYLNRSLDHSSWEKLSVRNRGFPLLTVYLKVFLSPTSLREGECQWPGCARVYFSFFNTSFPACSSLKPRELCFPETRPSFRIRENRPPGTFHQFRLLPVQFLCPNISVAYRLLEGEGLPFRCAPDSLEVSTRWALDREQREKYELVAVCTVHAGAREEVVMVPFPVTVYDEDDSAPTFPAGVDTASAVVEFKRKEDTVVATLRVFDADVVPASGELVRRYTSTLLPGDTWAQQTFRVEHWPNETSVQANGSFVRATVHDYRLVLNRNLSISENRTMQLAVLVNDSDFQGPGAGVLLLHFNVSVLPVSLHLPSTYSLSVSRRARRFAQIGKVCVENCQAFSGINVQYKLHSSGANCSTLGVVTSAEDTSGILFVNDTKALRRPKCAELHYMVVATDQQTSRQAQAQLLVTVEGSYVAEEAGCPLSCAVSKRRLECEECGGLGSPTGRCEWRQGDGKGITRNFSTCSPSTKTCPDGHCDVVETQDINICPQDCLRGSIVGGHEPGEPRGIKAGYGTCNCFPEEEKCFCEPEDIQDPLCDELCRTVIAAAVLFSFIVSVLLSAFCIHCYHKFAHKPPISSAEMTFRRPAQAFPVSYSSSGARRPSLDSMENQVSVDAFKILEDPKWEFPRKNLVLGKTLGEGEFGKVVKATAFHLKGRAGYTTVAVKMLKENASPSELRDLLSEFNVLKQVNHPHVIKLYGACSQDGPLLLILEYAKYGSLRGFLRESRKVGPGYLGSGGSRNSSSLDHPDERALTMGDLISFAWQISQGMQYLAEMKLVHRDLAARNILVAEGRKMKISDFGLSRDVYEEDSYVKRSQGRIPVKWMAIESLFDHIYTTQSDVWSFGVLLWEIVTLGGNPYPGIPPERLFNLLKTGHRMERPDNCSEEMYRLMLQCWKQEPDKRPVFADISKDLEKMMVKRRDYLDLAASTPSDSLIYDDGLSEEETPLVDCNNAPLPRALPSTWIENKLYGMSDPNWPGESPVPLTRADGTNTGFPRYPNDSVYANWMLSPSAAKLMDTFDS

Row | Compound | IC50 [nM]
1 | Cc1cc(Nc2cc(C)[nH]n2)nc(-c2ccc(C(=O)NCc3ccc(-n4nc(C)cc4C)nc3)nc2)n1 [Compound 24] | < 10
2 | Cc1cc(Nc2cc(C)[nH]n2)nc(-c2cnc(C(=O)N[C@@H](C)c3ccc(-n4cc(F)cn4)nc3)c(F)c2)n1 [Compound 30, (S)-3-fluoro-N-(1-(6-(4-fluoro-1H-pyrazol-1-yl)pyridin-3-yl)ethyl)-5-(4-methyl-6-((5-methyl-1H-pyrazol-3-yl)amino)pyrimidin-2-yl)picolinamide] | < 10
3 | Cc1cc(Nc2cc(C)[nH]n2)nc(-c2ccc(C(=O)NCc3ccc(Cl)cc3)nc2)n1 [Compound 11] | < 10
4 | CC[C@@H](NC(=O)c1ccc(-c2nc(C)cc(Nc3cc(C)[nH]n3)n2)cn1)c1ccc(-n2cc(F)cn2)nc1 [Compound 34] | > 100
5 | Cc1cc(Nc2cc(C)[nH]n2)nc(-c2ccc(C(=O)NCc3ccc(-n4cc(C5CC5)cn4)nc3)nc2)n1 [Compound 27] | > 100
6 | Cc1cc(Nc2cc(C)[nH]n2)nc(-c2ccc(C(=O)NCc3cncs3)nc2)n1 [Compound 3] | > 100
7 | Cc1cc(Nc2cc(C)[nH]n2)nc(-c2ccc(C(=O)N[C@H](C)c3ccccc3)nc2)n1 [Compound 6] | 10 to 100
8 | Cc1cc(Nc2cc(C)[nH]n2)nc(-c2ccc(C(=O)NCc3ccc(-n4ccc(C5CC5)n4)nc3)nc2)n1 [Compound 26] | < 10
9 | Cc1cc(Nc2cc(C)[nH]n2)nc(-c2ccc(C(=O)NCc3ccc(-n4cc(CCO)cn4)nc3)nc2)n1 [Compound 28] | < 10
10 | Cc1cc(Nc2cc(C)[nH]n2)nc(-c2cnc(C(=O)N[C@@H](C)c3ccc(-n4cc(F)cn4)nc3)c(C)c2)n1 [Compound 29, (S)—N-(1-(6-(4-fluoro-1H-pyrazol-1-yl)pyridin-3-yl)ethyl)-3-methyl-5-(4-methyl-6-((5-methyl-1H-pyrazol-3-yl)amino)pyrimidin-2-yl)picolinamide] | < 10
11 | Cc1cc(Nc2cc(C)[nH]n2)nc(-c2ccc(C(=O)NCc3cccc(F)c3)nc2)n1 [Compound 8] | 10 to 100
12 | Cc1cc(Nc2cc(C)[nH]n2)nc(-c2cnc(C(=O)N[C@@H](C)c3ccc(-n4cccn4)nc3)c(C)c2)n1 [Compound 23] | < 10

Same assay, conditions: read-out: V804L Mutant

Row | Compound | IC50 [nM]
13 | Cc1cc(Nc2cc(C)[nH]n2)nc(-c2ccc(C(=O)NCc3cnc(-n4cc(F)cn4)cn3)nc2)n1 [Compound 21] | < 10
14 | Cc1cnn(-c2ccc(CNC(=O)c3ccc(-c4nc(C)cc(Nc5cc(C)[nH]n5)n4)cn3)cn2)c1 [Compound 18] | < 10
15 | Cc1cc(Nc2cc(C)[nH]n2)nc(-c2cnc(C(=O)NCc3ccc(-n4cccn4)nc3)c(C)c2)n1 [Compound 19] | < 10
